# Antibody variant affinities, Ab-14 light chain, assay B

Values reported by Li et al. 2023, doi:10.1038/s41467-023-39022-2 (FLAb copy).

Target peptide (SARS-CoV-2 spike, HR2 region): PDVDLGDISGINAS

Ab-14 is the parent antibody, in scFv form: VH, then a 15-residue (Gly4Ser)3 linker, then VL. The heavy chain is unchanged in all variants.
VH: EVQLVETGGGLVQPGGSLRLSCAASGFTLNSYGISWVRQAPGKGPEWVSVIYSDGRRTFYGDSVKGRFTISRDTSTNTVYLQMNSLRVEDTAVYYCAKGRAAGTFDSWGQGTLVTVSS
VL: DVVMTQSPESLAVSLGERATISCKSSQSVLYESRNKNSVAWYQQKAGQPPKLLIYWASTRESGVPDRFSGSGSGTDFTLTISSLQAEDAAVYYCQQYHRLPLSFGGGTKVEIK

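The parent was found by panning a naive human phage display library on the peptide. Designed CDR sequences, proposed from the first random library and measured here. Group labels follow the data file (Ctrl: baseline library sampled from a position-specific scoring matrix, with some repeated check sequences; En: ensemble of fine-tuned language models; GP: Gaussian process model; HC: hill climbing; Gen: genetic algorithm; Gibbs: Gibbs sampling; a sequence that several methods proposed may carry one label only). The assay is AlphaSeq: two haploid yeast populations carry antibody and antigen on their surface. Mating (16 h, 30 °C) was followed by selection of diploids and sequencing of their barcodes. Scores were corrected for input abundance and mapped to Kd with protein pairs of known affinity run in the same pool. The assay was run in six technical replicates.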

Variants are written as CDR1, CDR2 and CDR3 of the light chain (limits as in the source). Parent: KSSQSVLYESRNKNSVA, WASTRES, QQYHRLPLS.
Values are log10 of the apparent Kd in nM; lower means stronger binding.
Replicates are averaged; those with no signal do not enter the mean.
"nd" means that the variant was in the library but no mating with the target was seen in any replicate; the authors take this as a sign of poor binding, and no number exists.
Values of this round are not directly comparable with the first-round values of the same sequences.

CDR-L1 | CDR-L2 | CDR-L3 | group | mean log10 Kd (nM) | seen in | signal with controls
TISHSMRYESSLKNAIA | NAQTRES | QQYHRLPIS | En_HC | 0.05 | 6 of 6 | 1 of 18
SLMQVGGYEMNNHNSIA | DLRTRES | QQYHRLPLS | En_HC | 0.74 | 6 of 6 | 0 of 18
HISMSVGLTQFNKNSVA | ENSTREN | QQYDRLPLS | En_HC | 1.78 | 6 of 6 | 1 of 18
KLVQSVLYESRNKNSVA | NASYRES | QQYHRLPLS | GP_Gen | 0.17 | 6 of 6 | 5 of 18
KLSQSMEYESRNKNSVA | NASTRES | QQYHRLPLS | GP_Gen | -0.31 | 6 of 6 | 5 of 18
KSSQSVLYESRNKNSVA | DASTRES | QQYWRLPLS | Ctrl | 0.86 | 6 of 6 | 1 of 18
TISMVMNHMTKNKNNVA | NMDMREV | QQYDRLPLS | En_Gen | 0.55 | 6 of 6 | 1 of 18
KLRQSTHIESFNKNNVA | EMTTREY | QSYDRLPLS | En_HC | 1.18 | 6 of 6 | 2 of 18
KSTQSVLYESNNKNSVA | EASTRES | QQYHRLPLE | Ctrl | 0.47 | 6 of 6 | 0 of 18
KISQMMRVGSTHQNSIA | EVATRSK | QQYHRLPLA | En_Gen | 2.52 | 1 of 6 | 0 of 18
KITTTMRFEQKNSNNIA | EVSTRSK | QQYVRLPLA | En_Gen | 0.64 | 6 of 6 | 0 of 18
KSSQSGLYESRNKNVVA | GASTREN | QQYHRLPLS | Ctrl | 1.38 | 6 of 6 | 2 of 18
TIGQVMHYESRNKNSVA | QTSIREE | QDYDRLPLS | En_HC | 2.35 | 6 of 6 | 2 of 18
SIQFYTENDAEWGDSIA | DVSATTA | QQYHRLPLA | En_Gibbs | 1.56 | 6 of 6 | 0 of 18
MISDLTMYGSRNRNSVA | DLSTRGS | QQYHRLPLS | En_HC | 0.04 | 6 of 6 | 2 of 18
KSSQSVLYEYRNKNSVA | WASTRES | QQYHRLPVS | Ctrl | 1.63 | 1 of 6 | 0 of 18
NLMSHQSEISVWKYSIA | EASIRLS | QQYFRLPLA | En_Gibbs | 1.39 | 1 of 6 | 0 of 18
RADAAPPIQGNNIDSVA | ENAIRLD | QQYARLPLS | En_Gibbs | 1.09 | 6 of 6 | 1 of 18
KLSQSVLYESRNKNSVA | NAMTRES | QQYHRLPLS | Ctrl | 0.05 | 6 of 6 | 1 of 18
KVDDSMVEWDANQSQVA | DHAEAQH | QQYDRLPLS | En_Gibbs | 2.00 | 6 of 6 | 0 of 18
KLTSVTGTEKVRGNNVA | EMETREK | QQYNRLPLA | En_Gen | 0.15 | 6 of 6 | 2 of 18
MISQLNNMGSFAINSVA | QASLRNE | QQYDRLPLT | En_Gen | 0.38 | 6 of 6 | 1 of 18
KLPQQTLYESRNKNSVA | WASTREE | QQYHRLPLS | GP_HC | 0.81 | 6 of 6 | 0 of 18
MISQLFNMGQFAINSVA | QASQRNA | QQYDRLPLI | En_Gen | 2.52 | 6 of 6 | 0 of 18
KLSQSELYESRNKNSVA | NASTRES | QQYHRLPLS | GP_Gen | -0.40 | 6 of 6 | 1 of 18
TISQSVLMTGLNRNSVA | QASERIE | QQYHRLPLS | En_HC | 0.46 | 6 of 6 | 1 of 18
MVSQLMLWGLHAKNSIA | EAETRLN | QQYDRLPLF | En_Gen | 1.25 | 3 of 6 | 0 of 18
KSSQSVLYESRNANSVA | WGVTRES | QQYHRLPLS | Ctrl | 1.94 | 6 of 6 | 0 of 18
KSSQSVLYESRNKNSVA | WADTRES | QQYHRLPLL | Ctrl | 1.29 | 6 of 6 | 0 of 18
TIGQSVHETSRIKNSVA | HASMRED | QQYDRLPLS | En_HC | 0.40 | 6 of 6 | 0 of 18
KLQMSEEYESRNKNSVA | MASTRCD | QQYHRLPLS | GP_Gibbs | 0.21 | 6 of 6 | 1 of 18
TLSQMSGVEQVKHNNVA | ENSTREK | QQYDRLPLT | En_Gen | 1.42 | 6 of 6 | 1 of 18
IMKEGQEEDAARLNNIA | DHYTRAT | QQYARLPLH | En_Gibbs | nd | 0 of 6 | 3 of 18
KSSQSVLYESRPKNSVA | SASTREQ | QQCHDLPLS | Ctrl | nd | 0 of 6 | 0 of 18
KSSQSWLYESRNKNSVA | GASTREN | QQYHRLPLS | GP_HC | -0.57 | 6 of 6 | 0 of 18
KMSQSDLCESRNKNSVA | DASTRES | QQYHRLPLS | GP_HC | 0.69 | 6 of 6 | 1 of 18
KSSQSFLYESRNKNSVA | GASTRES | QAYHRLTLS | GP_HC | 1.34 | 6 of 6 | 0 of 18
SLAMLLNQVYAYGSNIA | NAQVLVV | QQYYRLPLT | En_Gibbs | 1.43 | 1 of 6 | 0 of 18
KLSISYLIESRNKNSVA | EASTRES | QQYHRLPLS | GP_HC | 0.30 | 6 of 6 | 0 of 18
KQQQGQDYESRNDNSVA | DASLRES | QQYHRLPLS | GP_Gibbs | 0.15 | 6 of 6 | 1 of 18
KLSQSVLYESRNKNSVA | EASTRMS | QAYHRLPLS | GP_Gen | 0.85 | 6 of 6 | 2 of 18
HISQTVGMTSRNKNSVA | ENSTRED | QQYDRLPLS | En_HC | 2.99 | 1 of 6 | 1 of 18
KSSQSLLYESREKNSVA | DASTRES | QQYHECPLS | Ctrl | 2.45 | 1 of 6 | 0 of 18
RFPEHLLMLESKISNIA | NATKTME | QQYFRLPLV | En_Gibbs | 0.21 | 6 of 6 | 4 of 18
HISQMVMYGSCNMNNVA | QVSTREE | QQYHRLPLS | En_HC | 0.49 | 6 of 6 | 1 of 18

Background: pairings of all light chain designs with three empty control strains gave a value in 4% of cases (median 2.64, 5th percentile 1.59). Values in that range, when seen in few replicates, are hard to tell from nonspecific mating. For each scFv, signals with the empty controls are counted beside the result.
In the paper, a design with two or fewer of six values counts as a poor binder.
The parent sequence was in this pool as ten entries: three were never detected, three once, and four in most replicates, with averages from 0.34 to 2.37.